Target: Aromatase (Homo sapiens, UniProt P11511)
Experiment: Inhibition of aromatase in human placental microsomes using [1beta-3H]androstenedione as substrate after 15 mins by liquid scintillation counting
Set-up: species or system Placenta

Protein sequences, listed by entry. Tags and fused reporters are not part of them. Lines headed by an entry give the natural chain unless they say otherwise; changes in a name come on top.
UniProt P11511: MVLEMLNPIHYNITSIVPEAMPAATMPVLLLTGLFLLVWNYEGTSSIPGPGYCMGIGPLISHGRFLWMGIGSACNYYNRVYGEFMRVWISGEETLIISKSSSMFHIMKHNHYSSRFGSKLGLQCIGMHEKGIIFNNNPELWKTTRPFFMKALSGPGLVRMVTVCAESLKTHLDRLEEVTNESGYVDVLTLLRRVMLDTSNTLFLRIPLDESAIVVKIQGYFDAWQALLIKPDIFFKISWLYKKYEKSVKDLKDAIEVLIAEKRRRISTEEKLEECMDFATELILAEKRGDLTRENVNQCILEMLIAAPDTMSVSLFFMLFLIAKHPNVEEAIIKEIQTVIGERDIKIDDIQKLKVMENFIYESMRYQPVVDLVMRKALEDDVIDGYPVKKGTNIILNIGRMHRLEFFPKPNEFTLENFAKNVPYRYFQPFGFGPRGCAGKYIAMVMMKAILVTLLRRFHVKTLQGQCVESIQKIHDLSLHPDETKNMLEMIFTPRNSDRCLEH

Question: For `C[C@]12CCCC=C1CC[C@@H]1[C@@H]2CC[C@]2(C)C(=O)CC[C@@H]12`, which IC50 is on record?
Answer: The IC50 was 135 nM.

Reference: ChEMBL document CHEMBL2057175, “New structure-activity relationships of A- and D-ring modified steroidal aromatase inhibitors: design, synthesis, and biochemical evaluation” (J Med Chem, 2012)
